This data set is described as follows: serum insulin pharmacokinetics in normal rabbits by enzyme-linked immunoassay. In kind it is in vivo. The following applies: rabbit, subcutaneous injection, within 30-120 mins, p<0.05. How it is done: 2. Efficiency. The insulin content in vivo in which normal rabbits are used as pharmacological model are determined by enzyme-linked immunoassay. The pharmacokinetic parameter of the insulin buccal spray according to the present invention is calculated. […] The serum concentration is decreased to base level after 46 hrs.

The text below walks through data of patent US20040258623A1, “Insulin-containing oral spray and the preparation method thereof” (priority 2001, published 2004).

As to insulin, the “serum insulin concentration compared with control groups without insulin” value is recorded as “significant difference”.
